Values quoted from earlier work in patent publication US8748448B2, “Combination analgesic employing opioid agonist and neutral antagonist” (AIKO Biotechnology, priority 2007, dated 2014).

Settings: given orally unless otherwise indicated; cited from earlier work

CCC(=O)N(c1ccccc1)C1(COC)CCN(CCc2cccs2)CC1
Half-life of active metabolites: 4.4 h

Only a part of the results on these compounds is given; other tests are left out.
